Earlier results in patent US5972639A, “Fluorescence-based assays for measuring cell proliferation” (Irori, priority 1997, dated 1999).

Sequences of proteins named here, by UniProt entry; tags and fusion partners are left off. Residues count along the entry.
UniProt P00634, 22-471 limits assumed: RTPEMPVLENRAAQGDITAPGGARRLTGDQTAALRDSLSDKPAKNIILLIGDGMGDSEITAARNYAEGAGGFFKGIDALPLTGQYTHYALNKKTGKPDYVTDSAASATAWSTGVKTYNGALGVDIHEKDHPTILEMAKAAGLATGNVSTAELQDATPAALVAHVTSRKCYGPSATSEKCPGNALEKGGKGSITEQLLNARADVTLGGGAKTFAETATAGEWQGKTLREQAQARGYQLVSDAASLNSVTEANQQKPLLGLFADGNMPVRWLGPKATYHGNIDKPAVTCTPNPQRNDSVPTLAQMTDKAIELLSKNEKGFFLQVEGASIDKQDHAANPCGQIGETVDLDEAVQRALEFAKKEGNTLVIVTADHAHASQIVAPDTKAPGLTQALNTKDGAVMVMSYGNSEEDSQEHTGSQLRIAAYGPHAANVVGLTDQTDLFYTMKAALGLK

Tests used:
Alkaline phosphatase = conditions: identical products with alkaline phosphatases from the various sources; cited from earlier work
Acid phosphatase = conditions: identical products with acid phosphatases from the various sources; cited from earlier work
[1] = target: Alkaline phosphatase (E. coli) (Escherichia coli, UniProt P00634); conditions: cited from earlier work
[2] = tested on: Alkaline phosphatase (intestinal); conditions: cited from earlier work
[3] = tested on: Acid phosphatase (potato); conditions: cited from earlier work

NCCSP(=O)(O)O
Alkaline phosphatase, products identified (Alkaline phosphatase): Cysteamine, ^32 Pi | Acid phosphatase, products identified (Acid phosphatase): No cleavage | Cleavage shown by high voltage paper, electrophoresis [1]: Yes | Km [1]: 94 µM | V max [1]: 4.2 × 10^-8 moles of substrate hydrolyzed | Cleavage shown by high voltage paper, electrophoresis [2]: Yes | Km [2]: 250 µM | V max [2]: 0.7 × 10^-8 moles of substrate hydrolyzed | Cleavage shown by high voltage paper, electrophoresis [3]: No
